Patent US12636287B2, “Organic compounds” (INTRA-CELLULAR THERAPIES, INC., priority 2018, dated 2026)

Protein sequences, listed by entry. Tags and fused reporters are not part of them. Lines headed by an entry give the natural chain unless they say otherwise; changes in a name come on top.
UniProt Q13370: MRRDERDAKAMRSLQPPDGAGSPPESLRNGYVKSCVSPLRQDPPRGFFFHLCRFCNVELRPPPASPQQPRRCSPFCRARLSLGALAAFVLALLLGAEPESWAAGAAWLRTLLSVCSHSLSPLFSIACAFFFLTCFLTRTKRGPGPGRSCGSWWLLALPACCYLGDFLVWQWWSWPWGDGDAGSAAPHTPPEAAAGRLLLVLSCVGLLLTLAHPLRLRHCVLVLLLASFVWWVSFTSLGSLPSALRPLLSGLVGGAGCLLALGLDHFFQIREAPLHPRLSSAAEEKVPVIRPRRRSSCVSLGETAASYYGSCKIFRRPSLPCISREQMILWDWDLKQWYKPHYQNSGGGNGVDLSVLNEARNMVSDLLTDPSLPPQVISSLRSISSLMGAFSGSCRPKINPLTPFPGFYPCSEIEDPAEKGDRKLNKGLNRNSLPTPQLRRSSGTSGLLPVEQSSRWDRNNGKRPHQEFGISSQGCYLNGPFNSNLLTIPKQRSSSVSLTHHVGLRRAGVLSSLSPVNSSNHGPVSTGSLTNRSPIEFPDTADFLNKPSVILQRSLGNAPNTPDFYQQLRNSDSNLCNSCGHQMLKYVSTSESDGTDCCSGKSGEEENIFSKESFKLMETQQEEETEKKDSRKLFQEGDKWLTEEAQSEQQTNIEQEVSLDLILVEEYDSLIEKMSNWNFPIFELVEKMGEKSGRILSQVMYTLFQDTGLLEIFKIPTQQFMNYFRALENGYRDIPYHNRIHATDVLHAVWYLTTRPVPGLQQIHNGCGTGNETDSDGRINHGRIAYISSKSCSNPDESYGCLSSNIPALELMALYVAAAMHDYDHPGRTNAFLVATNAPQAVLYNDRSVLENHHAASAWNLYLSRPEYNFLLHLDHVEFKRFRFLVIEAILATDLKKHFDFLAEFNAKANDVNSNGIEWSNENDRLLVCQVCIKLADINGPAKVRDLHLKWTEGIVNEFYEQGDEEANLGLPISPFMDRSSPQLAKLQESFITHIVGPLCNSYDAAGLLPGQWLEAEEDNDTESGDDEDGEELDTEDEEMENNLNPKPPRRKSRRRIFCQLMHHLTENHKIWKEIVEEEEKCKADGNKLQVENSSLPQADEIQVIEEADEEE
UniProt Q9NP56: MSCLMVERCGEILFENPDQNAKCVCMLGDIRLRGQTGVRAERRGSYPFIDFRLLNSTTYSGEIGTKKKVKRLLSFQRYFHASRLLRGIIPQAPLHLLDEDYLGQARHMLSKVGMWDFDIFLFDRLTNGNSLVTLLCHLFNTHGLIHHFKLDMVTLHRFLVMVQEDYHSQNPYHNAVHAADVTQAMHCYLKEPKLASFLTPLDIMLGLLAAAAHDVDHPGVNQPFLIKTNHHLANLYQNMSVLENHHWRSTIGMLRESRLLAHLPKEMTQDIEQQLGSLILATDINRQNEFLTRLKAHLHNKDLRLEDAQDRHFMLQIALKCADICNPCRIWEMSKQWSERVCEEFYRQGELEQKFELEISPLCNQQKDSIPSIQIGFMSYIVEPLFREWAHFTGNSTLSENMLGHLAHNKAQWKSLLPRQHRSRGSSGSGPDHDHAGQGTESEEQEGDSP
UniProt Q9Y233: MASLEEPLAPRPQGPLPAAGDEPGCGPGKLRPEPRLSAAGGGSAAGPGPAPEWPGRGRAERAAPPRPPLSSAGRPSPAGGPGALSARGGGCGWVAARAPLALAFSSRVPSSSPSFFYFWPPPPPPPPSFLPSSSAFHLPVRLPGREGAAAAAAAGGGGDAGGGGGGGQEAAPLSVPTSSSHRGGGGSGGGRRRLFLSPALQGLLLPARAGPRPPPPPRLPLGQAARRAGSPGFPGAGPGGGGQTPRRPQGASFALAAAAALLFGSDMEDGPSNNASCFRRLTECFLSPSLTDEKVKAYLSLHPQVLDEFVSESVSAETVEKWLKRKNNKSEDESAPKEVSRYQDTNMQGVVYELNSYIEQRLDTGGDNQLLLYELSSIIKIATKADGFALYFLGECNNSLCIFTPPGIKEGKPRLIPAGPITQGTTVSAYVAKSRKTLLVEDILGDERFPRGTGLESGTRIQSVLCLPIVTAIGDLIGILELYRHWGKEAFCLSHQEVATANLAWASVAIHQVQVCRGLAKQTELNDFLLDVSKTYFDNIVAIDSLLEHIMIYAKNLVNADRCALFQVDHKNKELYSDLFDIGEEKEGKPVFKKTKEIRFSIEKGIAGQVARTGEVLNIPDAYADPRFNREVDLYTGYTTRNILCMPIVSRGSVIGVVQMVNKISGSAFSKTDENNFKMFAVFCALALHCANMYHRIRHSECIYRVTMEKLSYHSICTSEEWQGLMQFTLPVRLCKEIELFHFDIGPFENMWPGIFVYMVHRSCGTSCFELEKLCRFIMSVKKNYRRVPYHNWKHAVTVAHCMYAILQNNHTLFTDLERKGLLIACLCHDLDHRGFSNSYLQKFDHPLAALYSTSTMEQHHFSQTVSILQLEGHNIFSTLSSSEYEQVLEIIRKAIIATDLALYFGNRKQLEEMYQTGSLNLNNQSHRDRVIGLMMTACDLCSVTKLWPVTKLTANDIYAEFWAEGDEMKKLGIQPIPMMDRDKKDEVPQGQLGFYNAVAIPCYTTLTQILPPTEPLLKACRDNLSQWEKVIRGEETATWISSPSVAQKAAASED

Columns and labels:
[1] = system: PDE activity in the UWLV301 cell line; settings: compared with Ki for purified PDE1C
[2] = system: PDE activity in the UWLV304 cell line; settings: compared with Ki for purified PDE1C
hPDE3B = hPDE3B (Homo sapiens, UniProt Q13370)
hPDE7B = hPDE7B (Homo sapiens, UniProt Q9NP56)
hPDE10A = hPDE10A (Homo sapiens, UniProt Q9Y233)
r-bovine PDE5A = r-bovine PDE5A (Bos taurus, UniProt Q28156); test: biochemical

## CN1C(=O)c2c(nn(Cc3ccc(-c4cccc(F)n4)cc3)c2Nc2ccccc2)N2C1=N[C@@H]1CCC[C@@H]12 [Compound 1]
[1]
  IC50 for inhibition of PDE activity: closely matched the Ki value obtained for purified PDE1C
[2]
  IC50 for inhibition of PDE activity: closely matched the Ki value obtained for purified PDE1C
hPDE3B
  Ki: 3100 nM
hPDE7B
  Ki: 360 nM
hPDE10A
  Ki: 1800 nM
r-bovine PDE5A
  Ki: 630 nM
